Results from patent US7332474B2, “Peptides and related compounds having thrombopoietic activity” (Amgen Inc., priority 2001, dated 2008).

Protein sequences, listed by entry. Tags and fused reporters are not part of them. Residues count along the entry.
UniProt P40238, 26-635: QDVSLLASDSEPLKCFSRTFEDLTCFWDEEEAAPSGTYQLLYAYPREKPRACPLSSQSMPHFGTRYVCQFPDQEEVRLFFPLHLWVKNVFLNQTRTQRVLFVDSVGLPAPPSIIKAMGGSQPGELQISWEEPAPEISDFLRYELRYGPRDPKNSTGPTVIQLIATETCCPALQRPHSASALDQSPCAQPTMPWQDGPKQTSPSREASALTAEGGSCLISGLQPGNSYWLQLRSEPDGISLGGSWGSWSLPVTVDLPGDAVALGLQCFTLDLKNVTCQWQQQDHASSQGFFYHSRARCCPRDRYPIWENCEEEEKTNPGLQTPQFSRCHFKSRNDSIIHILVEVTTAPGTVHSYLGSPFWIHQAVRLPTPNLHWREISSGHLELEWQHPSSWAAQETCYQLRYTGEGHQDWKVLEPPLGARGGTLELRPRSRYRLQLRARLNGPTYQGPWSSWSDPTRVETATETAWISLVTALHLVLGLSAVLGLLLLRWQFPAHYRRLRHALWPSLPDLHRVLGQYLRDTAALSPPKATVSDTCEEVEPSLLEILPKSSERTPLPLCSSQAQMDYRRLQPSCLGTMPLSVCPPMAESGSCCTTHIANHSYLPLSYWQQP

Target: hu-mpl (Homo sapiens, UniProt P40238)
Conditions: BIACORE 3000, room temperature, hu-mpl immobilized on CM5 chip, 22 amino acid capped peptides

SAQGIEGPTLRQWLAARALETV [TMP1, reference compound]
Kd: 5.4 nM
